Source: patent US11219621B2, “Methods for treating immunodeficiency disease” (X4 Pharmaceuticals, Inc., priority 2015, dated 2022)
Where two headings read alike, the source gives them in different places.

The chains behind the UniProt entries cited, without tags or fusion partners. Where a name states a change or a piece, a line headed by the entry shows the natural chain unless it says otherwise. Residues count along the entry.
UniProt P61073, whole entry: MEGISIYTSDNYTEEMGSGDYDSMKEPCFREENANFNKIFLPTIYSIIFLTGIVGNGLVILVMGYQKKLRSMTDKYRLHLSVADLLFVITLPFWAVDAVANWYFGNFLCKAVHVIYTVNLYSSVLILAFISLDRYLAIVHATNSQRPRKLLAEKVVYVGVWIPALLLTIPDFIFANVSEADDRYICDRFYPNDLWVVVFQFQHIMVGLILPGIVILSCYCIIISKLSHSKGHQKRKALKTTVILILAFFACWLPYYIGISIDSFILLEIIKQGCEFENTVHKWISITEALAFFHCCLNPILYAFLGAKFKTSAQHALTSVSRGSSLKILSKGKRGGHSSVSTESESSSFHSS
UniProt P61073, 1-333 limits assumed: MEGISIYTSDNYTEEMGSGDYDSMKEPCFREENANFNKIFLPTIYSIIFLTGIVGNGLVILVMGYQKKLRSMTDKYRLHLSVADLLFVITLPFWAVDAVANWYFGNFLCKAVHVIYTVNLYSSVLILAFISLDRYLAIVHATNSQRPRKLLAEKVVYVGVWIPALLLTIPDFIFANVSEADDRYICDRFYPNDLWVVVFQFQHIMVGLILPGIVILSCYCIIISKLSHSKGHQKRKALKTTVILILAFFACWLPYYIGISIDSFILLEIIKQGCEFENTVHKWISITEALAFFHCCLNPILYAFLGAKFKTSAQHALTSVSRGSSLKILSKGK
UniProt P61073, 1-342 limits assumed: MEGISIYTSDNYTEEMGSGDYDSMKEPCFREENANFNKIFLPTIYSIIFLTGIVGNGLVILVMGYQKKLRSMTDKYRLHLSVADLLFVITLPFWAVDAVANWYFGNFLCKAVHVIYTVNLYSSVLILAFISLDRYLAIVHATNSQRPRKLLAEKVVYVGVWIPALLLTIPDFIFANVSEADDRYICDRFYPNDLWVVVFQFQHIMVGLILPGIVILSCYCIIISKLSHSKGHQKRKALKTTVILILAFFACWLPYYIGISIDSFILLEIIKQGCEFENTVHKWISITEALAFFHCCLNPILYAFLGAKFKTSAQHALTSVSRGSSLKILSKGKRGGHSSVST

Columns and labels:
CXCR4 [1] = molecular target: T1, CXCR4 (Homo sapiens, UniProt P61073)
CXCR4 [2] = molecular target: T1, CXCR4; details: CCRF-CEM cells; 2.5 nM SDF-1α; mean ± SE; read-out: IC50, SDF-1α mediated calcium flux; cited from earlier work
R334X CXCR4 variant = molecular target: T2, R334X CXCR4 variant (Homo sapiens, UniProt P61073); details: R334X variant in Cf2Th; read-out: IC50, inhibition of SDF-1α-mediated calcium flux; cited from earlier work
T2 construct: expressed in transfected cells; host or cells: Cf2Th (canine thymus cell line lacking CXCR4)

E343X CXCR4 variant = molecular target: T3, E343X CXCR4 variant (Homo sapiens, UniProt P61073); details: E343X variant in Cf2Th; read-out: IC50, inhibition of SDF-1α-mediated calcium flux; cited from earlier work
T3 construct: expressed in transfected cells; host or cells: Cf2Th (canine thymus cell line lacking CXCR4)

CXCR4 [3] = molecular target: T1, CXCR4; details: read-out: IC50, inhibition of [125I]-SDF-1α ligand binding; CCRF-CEM cells; single site binding model; mean ± SE; cited from earlier work
CXCR4 [4] = molecular target: T1, CXCR4; details: read-out: IC50, Eu-GTP binding; mean ± SE; cited from earlier work
CXCR4 [5] = molecular target: T1, CXCR4; details: read-out: IC50, [35S]-GTPγS binding; mean ± SE; cited from earlier work
CXCR4 [6] = molecular target: T1, CXCR4; details: read-out: IC50, SDF-1α mediated chemotaxis; CCRF-CEM cells; mean ± SE; cited from earlier work

In the case of NCCCCN(Cc1nc2ccccc2[nH]1)[C@H]1CCCc2cccnc21 [X4P-001], the IC50 (CXCR4 [1]) is given as 21.5 nM, the IC50 (CXCR4 [2]) is given as 9 ± 2 nM and the IC50 (R334X CXCR4 variant) is given as 8.5 nM. For the same molecule, the IC50 (E343X CXCR4 variant) was 4.6 nM, the IC50 (CXCR4 [3]) was 12.5 ± 1.3 nM and the IC50 (CXCR4 [4]) was 39.8 ± 2.5 nM. For the same molecule, the IC50 (CXCR4 [5]) was 19 ± 4.1 nM and the IC50 (CXCR4 [6]) was 19 ± 4 nM.
